Where two headings read alike, the source gives them in different places.
Columns and labels:
hTSHR = molecular target: T1, hTSHR (Homo sapiens, UniProt P16473); assay: cAMP (HTRF) in CHO cells transfected with hTSHR; format: cell-based; settings: mean ± SEM
T1 construct: expressed in transfected cells
Description: (§1) Chinese hamster ovary (CHO) cells transfected with hFSHR, hLHR or hTSHR were grown as described previously ([Kelton et al., 1992]; [Persani et al., 1993]; [Yu et al., 2014]). In brief, CHO-hFSHR and CHO-hTSHR were maintained in DMEM/F12 + 10% FBS in T150 culture flasks. The cells were cultured until they reached 70–80% confluence (three days) and were then used for assays or passaged. CHO-hLHR ([van de Lagemaat et al., 2009]; [Sriraman et al., 2014]) was cultured in MEM alpha (++) +10% FBS and G418, and passaged every three days. CHO-hFSHR or −hLHR or −hTSR cells (2,500/well) were plated in 5 µL of phenol red free DMEM/F12 + 1% FBS in 384 well solid white low volume plates (Greiner 784075) by Multidrop. Compounds were tested in the presence or absence of an EC20 concentration of hFSH (0.16 pM), hCG (0.2 pM) or hTSH (13 pM), in their corresponding assays. […] The plates were incubated at 37°C for 1 h. After the incubation period, cAMP was measured by HTRF® (homogeneous time-resolved fluorescence) assay (CisBio, Bedford, MA). […] An increase in cellular cAMP leads to a decrease in fluorescence resonance energy transfer, which is detectable as a decrease in the emission at 665 nm, measured by Envision fluorescence reader (PerkinElmer, Waltham, MA). The readout was calculated fluorescence ratio (665/620 nm). […]

Amino acid sequences for entries named in this document (tags omitted). Residues count along the entry.
UniProt P22888, 27-699: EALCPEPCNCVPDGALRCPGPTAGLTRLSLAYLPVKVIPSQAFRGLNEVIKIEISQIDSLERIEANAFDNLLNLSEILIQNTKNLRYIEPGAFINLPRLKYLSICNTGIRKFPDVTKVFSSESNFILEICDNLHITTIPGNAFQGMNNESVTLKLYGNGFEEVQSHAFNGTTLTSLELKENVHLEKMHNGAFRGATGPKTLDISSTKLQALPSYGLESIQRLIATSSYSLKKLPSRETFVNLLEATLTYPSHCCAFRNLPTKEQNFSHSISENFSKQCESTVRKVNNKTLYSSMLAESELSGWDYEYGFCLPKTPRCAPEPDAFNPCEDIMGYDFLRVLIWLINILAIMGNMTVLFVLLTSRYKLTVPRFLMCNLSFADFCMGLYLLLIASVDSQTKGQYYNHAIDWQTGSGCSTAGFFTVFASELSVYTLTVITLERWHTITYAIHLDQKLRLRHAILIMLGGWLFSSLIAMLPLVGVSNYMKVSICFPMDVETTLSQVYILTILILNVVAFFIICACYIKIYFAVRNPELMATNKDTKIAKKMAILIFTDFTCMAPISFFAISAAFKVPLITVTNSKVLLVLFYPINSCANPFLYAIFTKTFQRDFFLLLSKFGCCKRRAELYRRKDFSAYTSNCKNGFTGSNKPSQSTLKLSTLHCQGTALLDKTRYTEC

hFSHR = molecular target: T2, hFSHR (Homo sapiens, UniProt P23945); assay: cAMP (HTRF) in CHO cells transfected with hFSHR; format: cell-based; settings: maximal cAMP vs maximal response of protein ligand FSH; mean ± SEM
T2 construct: expressed in transfected cells
T2 sequence (P23945 18-695): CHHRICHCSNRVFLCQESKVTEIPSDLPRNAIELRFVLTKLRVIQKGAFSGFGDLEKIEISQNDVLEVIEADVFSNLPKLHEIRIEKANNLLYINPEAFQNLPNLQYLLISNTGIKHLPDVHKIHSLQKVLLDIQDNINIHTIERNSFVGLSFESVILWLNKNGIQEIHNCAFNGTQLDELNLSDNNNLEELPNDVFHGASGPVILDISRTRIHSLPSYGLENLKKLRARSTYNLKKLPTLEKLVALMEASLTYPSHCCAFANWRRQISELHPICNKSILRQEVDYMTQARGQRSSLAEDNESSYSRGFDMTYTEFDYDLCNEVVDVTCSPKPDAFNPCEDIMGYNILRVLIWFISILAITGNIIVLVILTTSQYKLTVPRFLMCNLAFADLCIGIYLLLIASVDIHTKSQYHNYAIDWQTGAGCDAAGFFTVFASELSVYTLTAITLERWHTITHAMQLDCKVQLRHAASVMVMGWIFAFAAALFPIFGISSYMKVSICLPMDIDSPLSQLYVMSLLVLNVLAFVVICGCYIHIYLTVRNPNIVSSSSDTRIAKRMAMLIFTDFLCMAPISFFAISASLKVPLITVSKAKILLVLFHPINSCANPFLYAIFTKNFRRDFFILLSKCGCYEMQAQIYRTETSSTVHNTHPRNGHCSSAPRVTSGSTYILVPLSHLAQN
Description: as §1

immature SD rats = assay: Superovulation assay in immature rats; format: in vivo, rat; settings: low dose of FSH 0.29 IU
Description: Immature SD rats and B6C3F1 mice (both 18–21 day old females) were purchased from Charles-River laboratories (Wilmington, MA, United States and Shanghai, China). All animals were treated in accordance to Chempartner (Shanghai, China) or Embryotech (Haverhill, MA, United States) IACUC approved animal protocols. The animals were provided water and food ad libitum and housed under 12 h dark and 12 h light schedules.
Immature rats and mice were used to investigate the ability of the small molecules to induce follicular development and support ovulation as described elsewhere ([Steelman and Pohley, 1953]) with modifications ([Sriraman et al., 2014]). Briefly, as reference standard, rh-follitropin-α (rec-hFSH [0.29 or 1.16 IU]) was administered as a subcutaneous injection every 12 h for a total of four doses, and r-hCG [1.75 IU] was provided with FSH at first and last injections. […] The isolated COC’s were treated with hyaluronidase and the total number of ovulated oocytes was determined microscopically.
Rats or mice that received small molecule were also treated with hCG (1.75 IU × 2) and low dose FSH [0.29 IU × 4], following methods we previously established ([Sriraman et al., 2014]). […] Plasma concentrations of FSHR-AA were measured during superovulation assays, except for experiments where plasma was collected for estradiol measurements.

human granulosa cells = assay: Estradiol production by human granulosa cells from individual patients by diagnosis (NOR, ARA, PCOS); format: cell-based; settings: FSH (20 nM) or TOP5300 (400 nM)
Description: Human granulosa cells were prepared from the spent follicular fluid of women undergoing IVF treatment at Boston IVF Center (Waltham, MA, United States) and at Family Fertility Center (Baylor College of Medicine, Houston, TX, United States) following methods previously established ([Breckwoldt et al., 1996]; [Amsterdam et al., 2003]). Institutional review board approval and informed consent from the patients were obtained before collecting the follicular fluid samples. In brief, red blood cells (RBCs) in the follicular aspirate were lyzed using RBC lysis buffer (Quality Biological Inc., Gaithersburg, MD, United States), and washed extensively with PBS and DMEM/F12 containing 5% FBS, fungizone, and the antibiotics penicillin (100 IU/ml) and streptomycin (100 μg/ml). Subsequently, cells from the aspirate were plated in T75 flasks, cultured for 7 days with fresh media being replaced every other day. At the end of the culture period, cells were released from the flask by trypsin and transferred to 96-well plates (5,000 cells/well, Greiner Bio-One). Following 48 h of culture, media in culture wells was replaced with serum free media containing 0.1% BSA and 10^−7 M androstenedione. Following 24 h of serum starvation, cells were stimulated with fresh media (0.1% BSA, 10^−7 M androstenedione) with FSH or compound for 48 h. Supernatant was collected and stored at −80C for determination of estradiol by ELISA.
Clinical definitions of patient sub-populations for patients at Texas Fertility followed guidelines outlined by the Practice Committee of the American Society for Reproductive Medicine ([Practice Committee of the American Society for Reproductive Medicine, 2015]). […] Advanced reproductive age (ARA) was defined as woman of 35 years old or greater in age, based on the definition of advanced maternal age by Society for Maternal-Fetal Medicine. […]

rat granulosa cells = assay: Rat granulosa cell assay measuring secreted estradiol; format: cell-based; settings: 24 h, mean ± SEM
Description: All animals were maintained and handled under IACUC approved procedures at the respective institutions providing contracted service for TocopheRx, following procedures previously approved by local (MA, United States) IACUC reviews ([Sriraman et al., 2014]; [Yu et al., 2014]). Ovarian follicular granulosa cells were isolated from rats implanted with DES pellets (1 mg/day; 7-days release) at ChemPartner (Shanghai, China). The pellets were implanted subcutaneously on 22 day old rats with trochar, employing aseptic techniques after isoflurane anesthesia. Animals were euthanized on post-op day 3, ovaries were excised, cleaned, and granulosa cells were isolated by repeated disruption of the follicle as described previously. Granulosa cells isolated from four to five rats were used to culture one 96-well plate and an equal number of cells was plated in each well. The cells were cultured overnight at 37°C in media containing 5% FBS.
After overnight culture, the media was replaced with serum free media containing 0.1% BSA and 100 nM androstenedione. […] A dose response curve with a 4-fold dilution of rec-hFSH starting at highest concentration of 5 nM and a two-fold dilution of small molecule FSHR-AA starting at highest concentration of 10 μM at eight different concentrations was tested. After 24 h of treatment, supernatant was collected and estradiol concentration was determined by ELISA (DRG, Mountainside, NJ, United States). The optical densities of the estradiol ELISA were measured by Spectramax (Sunnyvale, CA, United States). The values were analyzed in Microsoft Excel and Graphpad Prism (San Diego, CA, United States).

hLH/CGR = molecular target: T3, hLH/CGR (Homo sapiens, UniProt P22888); assay: cAMP (HTRF) in CHO cells transfected with hLH/CGR; format: cell-based; settings: maximal cAMP vs maximal response of hCG; mean ± SEM
T3 construct: expressed in transfected cells
Description: Chinese hamster ovary (CHO) cells transfected with hFSHR, hLHR or hTSHR were grown as described previously ([Kelton et al., 1992]; [Persani et al., 1993]; [Yu et al., 2014]). In brief, CHO-hFSHR and CHO-hTSHR were maintained in DMEM/F12 + 10% FBS in T150 culture flasks. The cells were cultured until they reached 70–80% confluence (three days) and were then used for assays or passaged. CHO-hLHR ([van de Lagemaat et al., 2009]; [Sriraman et al., 2014]) was cultured in MEM alpha (++) +10% FBS and G418, and passaged every three days. CHO-hFSHR or −hLHR or −hTSR cells (2,500/well) were plated in 5 µL of phenol red free DMEM/F12 + 1% FBS in 384 well solid white low volume plates (Greiner 784075) by Multidrop. […] The plates were incubated at 37°C for 1 h. After the incubation period, cAMP was measured by HTRF® (homogeneous time-resolved fluorescence) assay (CisBio, Bedford, MA). In brief, conditioned media were incubated with cryptate-labeled cAMP antibody and d2-labeled cAMP in lysis buffer for 1 h. Free cAMP produced by cells competes with cAMP-d2 for binding to the anti-cAMP cryptate. An increase in cellular cAMP leads to a decrease in fluorescence resonance energy transfer, which is detectable as a decrease in the emission at 665 nm, measured by Envision fluorescence reader (PerkinElmer, Waltham, MA). The readout was calculated fluorescence ratio (665/620 nm). […]

TSH: thyroid stimulating hormone, protein ligand standard of the CHO-hTSHR assay
EC50 (hTSHR; compounds in presence of EC20 ligand (Figure 1 legend)): 0.0827 nM
% Response, CHO-hTSHR (hTSHR; maximal cAMP vs maximal response of TSH): 100%

hFSH: Recombinant human FSH, bulk preparation of Merck KGaA (follitropin-α)
% Response, CHO-hFSHR (hFSHR): 100%
activity in superovulation assays relative to FSH 1.16 IU (immature SD rats): 20%
Estradiol (pg/ml), ARA (n = 6) (human granulosa cells; advanced reproductive age, mean ± SD): 4,818 + 8,928 pg/ml
Estradiol (pg/ml), NOR (n = 2) (human granulosa cells; normal ovarian reserve, mean): 7,089 pg/ml
Estradiol (pg/ml), PCOS (n = 4) (human granulosa cells; polycystic ovarian disease, mean ± SD): 613 ± 1,133 pg/ml
% Response, estradiol, +EC20 FSH (rat granulosa cells; +EC20 FSH): 100%
EC50 (rat granulosa cells; +EC20 FSH, read-out: EC50 (M), estradiol, +EC20 FSH): 5.1e-11 M
% Response, estradiol, No FSH (rat granulosa cells; No FSH): 100%
EC50 (rat granulosa cells; No FSH, read-out: EC50 (M), estradiol, No FSH): 5.35e-11 M

hCG: human chorionic gonadotropin, bulk preparation of Merck KGaA (choriogonadotropin-α)
% Response, CHO-hLH/CGR (hLH/CGR): 100%

From publication PMC7845544 (Frontiers in Pharmacology, 2021)
